Experimental data from BindingDB's records for patent US11174250 (Propellon Therapeutics, 2021).

Target: T1, P61964[22-334]/Q03164[3745-3969]/Q15291/Q9C005/Q9UBL3[2-534] (Homo sapiens, UniProt P61964)
T1 construct: 3745-3969; 2-534
Experiment: MLL1-WRAD2 Enzyme Assay
Method: Reaction was initiated with 1 μM 3H-SAM and incubated for 1 hour at 30° C. Reaction mixture was transferred to P81 filter-paper and washed with PBS before detection.

**Q.** How did the IC50 turn out when `CN1CCN(c2c(F)cc(-c3cc(CN4CCOCC4)ccc3F)cc2NC(=O)c2c[nH]c(=O)cc2C(F)(F)F)CC1` [US11174250, Example 98] was run?
**A.** The IC50 was 40.1 µM.
